Data on 1 compound can be found in patent publication US12226477B2, “Methods for preparing complex for enhancing immune response” (priority 2018, dated 2025).

This test relates to influenza virus subtype A mice-lung adaptive strain FM1. The conditions noted are these: mouse, in vivo.

Turning to `NC(=O)c1ncn([C@@H]2O[C@H](CO)[C@@H](O)[C@H]2O)n1` [Ribavirin positive control, Ribavirin], the Death rate % came to 43%.
